## Antibody variant affinities, Ab-91 heavy chain, assay 2

Values reported by Engelhart et al. 2022, doi:10.1038/s41597-022-01779-4 (FLAb copy).

Antigen: PDVDLGDISGINAS, a 14-residue peptide of the SARS-CoV-2 spike HR2 region.

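The library (AAYL51) carries one to three amino acid substitutions per variant, with no insertions or deletions. The scFvs were displayed on barcoded MATa yeast, the peptide on MATalpha yeast. Mating (16 h, 30 °C) was followed by selection of diploids and sequencing of their barcodes. Scores were corrected for input abundance and mapped to Kd with protein pairs of known affinity run in the same pool. Each pool was mated in three replicate cultures.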

Parent scFv Ab-91: VL joined to VH by a 15-residue (Gly4Ser)3 linker. Changes lie in the heavy chain CDRs alone.
VL: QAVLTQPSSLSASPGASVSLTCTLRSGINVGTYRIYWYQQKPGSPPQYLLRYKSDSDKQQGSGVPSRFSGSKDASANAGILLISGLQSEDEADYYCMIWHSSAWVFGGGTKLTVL
VH: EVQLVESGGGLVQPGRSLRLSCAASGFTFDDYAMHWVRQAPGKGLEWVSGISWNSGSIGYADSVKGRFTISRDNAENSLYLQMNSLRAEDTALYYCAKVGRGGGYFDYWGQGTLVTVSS

Variants are written as CDR1, CDR2 and CDR3 of the heavy chain (limits as in the source). Parent: GFTFDDYAMH, GISWNSGSIGYADSVK, VGRGGGYFDY.
Numbers give log10(Kd / nM), so 0 is 1 nM and 3 is 1 µM. Smaller is tighter.
A mean of the replicates is given; it leaves out those without a signal.
A pair that was not seen in that replicate is written "nd"; this usually means weak binding, but a binder can also be missed.
Three control strains display no target. For library AAYL51, 21% of the pairings with them gave a signal, with a median of 4.54 and one signal in twenty below 3.26, so weak values seen in few replicates may be background. The control count says in how many pairings with the empty strains this scFv gave a signal, with their mean in brackets.
In this assay the parent's reference entry averaged 1.86; its copy inside this library read 0.88.

| CDR-H1 | CDR-H2 | CDR-H3 | log10 Kd, replicates | log10 Kd (nM), mean | signal with controls |
|---|---|---|---|---|---|
| GFYFDDYAMH | GISWNSGSWGYADSVK | VGRKGGYFDY | 3.98 nd nd | 3.98 | 1/9 (5.05) |
| GFTFIDYAMH | GISWNSMSIYYADSVK | VGRGGGYFDY | 3.67 3.47 nd | 3.57 | 0/9 |
| GFTFDDYAMH | GVSWNSGSIGYADSVK | VGIKGGYFDY | 4.31 nd nd | 4.31 | 0/9 |
| GFTFDDYAMH | GISWNSGSISYADSVK | QGRGGGYFYY | nd nd nd | nd | 3/9 (4.27) |
| GFTFDDGAMH | GISWNSGSIWYADSVN | VGRGGGYFDY | nd nd nd | nd | 0/9 |
| GFTFDDYAMH | GISWNSGSKGVADSVK | VGRGGGYFDY | 1.94 2.04 2.46 | 2.15 | 1/9 (3.18) |
| GFTFDDYAMH | GISWNSASIGYADSCK | VGRGGGYFDY | 1.58 1.64 1.11 | 1.45 | 5/9 (4.95) |
| RFTFDNYAMG | GISWNSGSIGYADSVK | VGRGGGYFDY | nd nd nd | nd | 0/9 |
| GFTFFDYAMH | TISWNSGSIGYADSVK | VGRGGGYFDY | nd nd nd | nd | 0/9 |
| GHTFDDYAMH | DISWNSGSIGYQDSVK | VGRGGGYFDY | nd 3.73 nd | 3.73 | 2/9 (4.20) |
| GFTFDDYAMH | GESWNSGSIGYADSVK | VGRGGCYFDY | nd nd nd | nd | 0/9 |
| HFTFDDYAMQ | GISWNSDSIGYADSVK | VGRGGGYFDY | 5.05 nd nd | 5.05 | 3/9 (4.57) |
| GFTIDDYAMH | GISWNSESIGVADSVK | VGRGGGYFDY | 0.83 1.11 0.15 | 0.69 | 0/9 |
| GFTFDDYAMH | GISWVSGSIGYADSYK | VGRGGGSFDY | nd nd nd | nd | 0/9 |
| GFTFDDYPMH | GISWNSGSIGYADSVK | VGRGGGYFDY | 2.15 1.64 1.18 | 1.66 | 0/9 |
| GFTFDDYAMH | GICWNSGSIGYADSYK | VGRGGGYWDY | nd nd nd | nd | 3/9 (4.10) |
| DFTFDDYAMH | GISWNSGSIAYADSVD | VGRGGGYFDY | nd nd nd | nd | 0/9 |
| GFTFDDYAMT | GISWNLGSIGYADSVK | VGNGGGYFDY | nd nd nd | nd | 1/9 (5.49) |
| GFTFDDYAMP | GISWNSGSIGYADSVK | IGRGGGYFDT | nd 3.41 nd | 3.41 | 1/9 (4.38) |
| GFAFDDYAMA | GISWNSGSIGYADSVK | VGRHGGYFDY | nd nd nd | nd | 0/9 |
| GFTFDDYAMH | GCSVNSGSIGYADSVK | VGRGGGTFDY | nd nd nd | nd | 0/9 |
| GFTFDDAAMH | GISWNSGSIGYADSVK | VGRSGGYDDY | 4.40 4.29 5.18 | 4.62 | 8/9 (5.39) |
| GFTFDDYCMH | GISWNSGSIGYADKVK | VGRGGGYTDY | 4.25 6.01 5.00 | 5.08 | 5/9 (4.76) |
| GFTFADYAMH | EISWNSGSDGYADSVK | VGRGGGYFDY | 4.04 nd nd | 4.04 | 5/9 (4.62) |
| GETDDDYAMH | GISWNSGSIGYADSVK | VCRGGGYFDY | nd nd nd | nd | 0/9 |
| GFTFDDYAMH | GISWISGSIGYACSVK | VGRGGGYVDY | nd nd nd | nd | 3/9 (4.23) |
| GFTFDDMAMH | GISWNSGSIGYADSVF | VPRGGGYFDY | 4.56 3.36 nd | 3.96 | 0/9 |
| GFTMDDYAMH | GISWNSGSIGCADSVK | VGRGGGYFDY | nd 4.87 5.35 | 5.11 | 2/9 (4.88) |
| GFTFDDYAMH | GISWNSGSIGYADSVK | MGIGGGYFDF | 3.52 3.57 3.09 | 3.40 | 2/9 (4.06) |
| CFTFDDYAMD | GISWNSGSIGYADSVK | VGRGGKYFDY | nd nd nd | nd | 0/9 |
| GFTFDDYALH | GESWNSGSIGYADSVK | VGWGGGYFDY | nd nd nd | nd | 2/9 (4.19) |
| GFDFDDYAMH | GISWRSGSIGYADSVK | VYRGGGYFDY | 4.80 4.94 nd | 4.87 | 2/9 (4.30) |
| GFTFDDYAMH | GNSWNPGSIGYADSVK | VGTGGGYFDY | 5.51 5.48 5.43 | 5.47 | 4/9 (4.94) |
| GFTFDDYWMH | GISWNSGSIGYALSVK | VGRGMGYFDY | nd nd nd | nd | 0/9 |
| GFTFVDYAMH | GISWVSGSIGYADSVK | VGRGGGYFDY | 5.36 4.17 nd | 4.77 | 3/9 (4.43) |
| GFTFDDYAMH | GISWNSGSIGYADSVK | VWRGGGVADY | nd nd nd | nd | 0/9 |
| LATFDDYAMH | GISWNSGSEGYADSVK | VGRGGGYFDY | nd nd nd | nd | 0/9 |
| GFTFDDHAMH | GICWNSGSIGYADSVK | VGFGGGYFDY | nd nd nd | nd | 2/9 (3.90) |
| GFTFDDYAMH | GSSWNSGSEQYADSVK | VGRGGGYFDY | nd nd 4.40 | 4.40 | 5/9 (5.10) |

5 of these entries, quoted again:

| CDR-H1 | CDR-H2 | CDR-H3 | log10 Kd, replicates | log10 Kd (nM), mean | signal with controls |
|---|---|---|---|---|---|
| GFTFIDYAMH | GISWNSMSIYYADSVK | VGRGGGYFDY | 3.67 3.47 nd | 3.57 | 0/9 |
| GHTFDDYAMH | DISWNSGSIGYQDSVK | VGRGGGYFDY | nd 3.73 nd | 3.73 | 2/9 (4.20) |
| GFTFDDYAMH | GISWNSGSIGYADSVK | MGIGGGYFDF | 3.52 3.57 3.09 | 3.40 | 2/9 (4.06) |
| GFTFDDYAMH | GSSWNSGSEQYADSVK | VGRGGGYFDY | nd nd 4.40 | 4.40 | 5/9 (5.10) |
| GFTFVDYAMH | GISWVSGSIGYADSVK | VGRGGGYFDY | 5.36 4.17 nd | 4.77 | 3/9 (4.43) |